# Experimental data from patent publication US20240148877A1.
# Protein sequences, listed by entry. Tags and fused reporters are not part of them. Residues count along the entry.
# UniProt Q15116, 25-288: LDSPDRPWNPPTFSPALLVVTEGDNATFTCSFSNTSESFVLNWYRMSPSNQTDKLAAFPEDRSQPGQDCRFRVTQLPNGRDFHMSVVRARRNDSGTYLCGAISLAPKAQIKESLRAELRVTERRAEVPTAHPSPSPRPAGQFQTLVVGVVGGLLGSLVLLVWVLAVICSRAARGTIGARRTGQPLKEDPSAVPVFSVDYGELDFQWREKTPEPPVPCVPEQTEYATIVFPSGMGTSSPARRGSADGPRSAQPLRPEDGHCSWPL
# Molecular target: human PD-1 (human) (UniProt Q15116)
# Assay: cell-based or functional assay
substance,measurement,value
InVivoSIM anti-human-PD-1 (Nivolumab Biosimilar) (antibody),"EC50 (PD-1/PD-L1 Blockade Bioassay, luminescence)",1.04 µg/mL
